# Source: PMC6287471 (International Journal for Parasitology: Drugs and Drug …, 2018)
# Target: T1, Hco-ACC-2 WT channel (Haemonchus contortus, UniProt A0A219KWM7)
# T1 sequence (A0A219KWM7 18-443): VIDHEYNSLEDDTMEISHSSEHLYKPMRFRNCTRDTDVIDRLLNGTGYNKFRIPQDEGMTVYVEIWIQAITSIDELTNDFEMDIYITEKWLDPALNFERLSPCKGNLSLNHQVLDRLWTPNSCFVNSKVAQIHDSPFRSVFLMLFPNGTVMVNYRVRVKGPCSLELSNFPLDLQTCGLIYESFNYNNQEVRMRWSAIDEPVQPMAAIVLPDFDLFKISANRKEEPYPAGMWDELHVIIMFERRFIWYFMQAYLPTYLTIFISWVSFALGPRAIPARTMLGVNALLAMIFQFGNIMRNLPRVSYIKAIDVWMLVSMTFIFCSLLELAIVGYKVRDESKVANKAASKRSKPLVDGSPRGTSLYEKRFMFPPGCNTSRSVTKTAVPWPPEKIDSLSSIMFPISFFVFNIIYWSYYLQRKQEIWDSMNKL
# Assay: cell-based
# Conditions: EC50 ± standard error, n ≥ 5 oocytes
compound,measurement,value
CC(=O)OCC[N+](C)(C)C [Acetylcholine],EC50,21 ± 1 µM
